Measured values taken from patent US7303740B2, “Methods for the diagnosis and treatment of breast cancer” (Albert Einstein College of Medicine of Yeshiva University, priority 2000, dated 2007).

Target: T1, mgNIS (Mus musculus, UniProt Q99PN0)
T1 sequence (Q99PN0 1-618): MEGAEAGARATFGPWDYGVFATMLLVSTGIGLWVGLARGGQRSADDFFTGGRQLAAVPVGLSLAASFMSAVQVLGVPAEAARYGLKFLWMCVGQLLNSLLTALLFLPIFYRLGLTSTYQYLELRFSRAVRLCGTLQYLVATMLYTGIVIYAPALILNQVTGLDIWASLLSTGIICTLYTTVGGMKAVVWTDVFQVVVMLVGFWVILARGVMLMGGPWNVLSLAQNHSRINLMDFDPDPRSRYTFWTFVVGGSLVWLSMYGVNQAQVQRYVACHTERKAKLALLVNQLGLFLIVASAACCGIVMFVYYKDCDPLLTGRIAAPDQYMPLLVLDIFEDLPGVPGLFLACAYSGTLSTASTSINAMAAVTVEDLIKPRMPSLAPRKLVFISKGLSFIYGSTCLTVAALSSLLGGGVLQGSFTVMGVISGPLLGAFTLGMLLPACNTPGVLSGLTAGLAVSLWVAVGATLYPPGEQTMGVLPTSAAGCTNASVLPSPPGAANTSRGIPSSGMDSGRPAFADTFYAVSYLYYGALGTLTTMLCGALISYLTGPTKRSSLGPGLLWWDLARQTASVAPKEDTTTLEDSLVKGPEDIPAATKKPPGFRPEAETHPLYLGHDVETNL
Design: Membrane fractions isolated from MG of nubile female mice; from tissue; host or cells: CD1 (ICR) mice (intact, ovariectomized, gestating) and MMTV-ras / MMTV-neu transgenic mice: mammary gland, mammary adenocarcinoma, stomach; species or system mice
Conditions: in vivo
Description: FIG. 5. Analysis of mammary adenocarcinomas in MMTV-ras and MMTV-neu transgenic mice. (A) Photograph of MMTV-ras transgenic mouse with a mammary adenocarcinoma. Transgenic mice were anaesthetized with intramuscular sodium pentobarbital injections. Then, ^99mTcO4^− (B, G), ^99mTc-labeled human serum albumin (^99mTc-HSA) (C), or ^99mTcO4^−+perchlorate (D, H) was administered by tail vein injections. (E) Dynamic curves of percent injected dose per pixel were calculated by drawing regions of interest around tumoral tissue and the mediastinum, and dividing the counts per pixel (average counts) within each region of interest by the initial whole-body count value, thereby yielding a percent injected dose per pixel. (F) Immunoblot analysis of membrane fractions isolated from MMTV-ras tumor with anti-NIS Ab. (I) Immunoblot analysis of membrane fractions isolated from MMTV-neu tumors with anti-NIS Ab. In an MMTV-neu mouse with two adjacent mammary glands containing tumors, each tumor is indicated with an arrow and numbered. […]
To assess whether specific active I^− uptake (a result of mgNIS expression) occurred in the mammary tumoral cells, transgenic animals were imaged in vivo with either ^131I^− or ^99mTcO4^−. […] Quantification of the accumulation of the various tracers in the tumor, as a function of time, is also shown for the ras mouse.

For “^99mTc-HSA: ^99mTc-labeled human serum albumin, a vascular space marker”, the “tracer accumulation in mammary tumor” value was “lack of accumulation”.
